Yeast mating assay 1: variants of the scFv Ab-14

Values reported by Engelhart et al. 2022, doi:10.1038/s41597-022-01779-4 (FLAb copy).

Antigen: PDVDLGDISGINAS, a 14-residue peptide of the SARS-CoV-2 spike HR2 region.

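The parent was found by panning a naive human phage display library on the peptide. AAYL49 was designed without a model: most single CDR substitutions and a random sample of double and triple ones. The assay is AlphaSeq: two haploid yeast populations carry antibody and antigen on their surface. Mating (16 h, 30 °C) was followed by selection of diploids and sequencing of their barcodes. Scores were corrected for input abundance and mapped to Kd with protein pairs of known affinity run in the same pool. The assay was run in three technical replicates.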

Parent: Ab-14, a human scFv built as VH, a (GGGGS)3 linker, VL. Only the CDRs of the heavy chain vary.
VH: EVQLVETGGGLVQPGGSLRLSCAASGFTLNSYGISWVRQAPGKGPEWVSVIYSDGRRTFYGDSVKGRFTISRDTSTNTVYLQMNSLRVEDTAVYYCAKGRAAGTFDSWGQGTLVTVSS
VL: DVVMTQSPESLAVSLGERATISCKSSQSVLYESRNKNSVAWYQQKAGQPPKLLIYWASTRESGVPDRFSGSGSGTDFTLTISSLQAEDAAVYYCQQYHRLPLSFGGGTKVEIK

Substitutions are numbered in sequence along the VH above, starting at 1 (not Kabat). All variants listed here change V64 of the VH, counted from its first residue. Values are log10 of the apparent Kd in nM; lower means stronger binding. Averages over replicates are reported, and they cover detected replicates only. "no signal" marks a missing value. The strain was present, yet no cells mated with the target were sequenced in any replicate, which points to weak or no binding. The list is sorted by this average, lowest first, undetected variants last.

- F27G/T28W/V64A: 1.36 (2 of 3 replicates; controls 1 of 9)
- F59A/V64E/T104C: 2.33 (3 of 3 replicates; controls 0 of 9)
- V64L/A101Q: 2.34 (3 of 3 replicates; controls 1 of 9)
- G61K/V64Y/A101N: 2.43 (2 of 3 replicates; controls 1 of 9)
- S31F/S35M/V64I: 2.62 (3 of 3 replicates; controls 0 of 9)
- S35H/V64K/K65F: 3.01 (1 of 3 replicates; controls 0 of 9)
- R56T/V64R/K65H: 3.09 (3 of 3 replicates; controls 2 of 9)
- G61V/V64T: 3.56 (2 of 3 replicates; controls 1 of 9)
- I51W/V64K/G99V: 3.57 (1 of 3 replicates; controls 5 of 9)
- N30Q/V64S/S107L: 3.59 (1 of 3 replicates; controls 0 of 9)
- L29E/I51V/V64W: 3.82 (2 of 3 replicates; controls 4 of 9)
- G33V/G55R/V64Y: 3.92 (1 of 3 replicates; controls 3 of 9)
- L29R/F59M/V64K: 4.08 (1 of 3 replicates; controls 1 of 9)
- L29Y/S35Q/V64C: 4.19 (1 of 3 replicates; controls 0 of 9)
- S35D/R56W/V64D: 4.35 (1 of 3 replicates; controls 1 of 9)
- F27C/Y52G/V64M: 4.94 (1 of 3 replicates; controls 2 of 9)
- T28M/V64D/G103M: 5.02 (1 of 3 replicates; controls 4 of 9)
- S63N/V64N: 5.18 (3 of 3 replicates; controls 4 of 9)
- I51W/Y52V/V64A: 5.41 (1 of 3 replicates; controls 3 of 9)
- R56H/D62R/V64Q: 5.58 (2 of 3 replicates; controls 3 of 9)
- V50M/V64S: no signal (0 of 3 replicates; controls 1 of 9)
- D62S/V64P/S107R: no signal (0 of 3 replicates; controls 1 of 9)
- F59V/V64N/T104N: no signal (0 of 3 replicates; controls 0 of 9)
- S53H/V64G/S107E: no signal (0 of 3 replicates; controls 1 of 9)
- S53Y/V64G: no signal (0 of 3 replicates; controls 0 of 9)
- I34Q/V64W/D106S: no signal (0 of 3 replicates; controls 0 of 9)
- Y52F/Y60S/V64E: no signal (0 of 3 replicates; controls 0 of 9)
- R57N/V64K/S107T: no signal (0 of 3 replicates; controls 1 of 9)
- D54E/V64N: no signal (0 of 3 replicates; controls 0 of 9)
- V64R/A101T: no signal (0 of 3 replicates; controls 2 of 9)
- T28C/G61R/V64G: no signal (0 of 3 replicates; controls 1 of 9)
- N30C/V64P/G103C: no signal (0 of 3 replicates; controls 0 of 9)
- G33N/V64E/K65A: no signal (0 of 3 replicates; controls 2 of 9)
- L29R/D54V/V64Y: no signal (0 of 3 replicates; controls 1 of 9)
- Y60K/V64A/G99P: no signal (0 of 3 replicates; controls 1 of 9)
- G26C/V64H/G103H: no signal (0 of 3 replicates; controls 0 of 9)
- D54Q/V64C: no signal (0 of 3 replicates; controls 1 of 9)
- D62E/V64P/S107F: no signal (0 of 3 replicates; controls 2 of 9)
- G26N/F59W/V64E: no signal (0 of 3 replicates; controls 0 of 9)
- I34V/V64D/T104S: no signal (0 of 3 replicates; controls 1 of 9)
- I34G/V64N/G99N: no signal (0 of 3 replicates; controls 0 of 9)
- V50N/V64N/G99A: no signal (0 of 3 replicates; controls 1 of 9)
- S31F/V64L/G103T: no signal (0 of 3 replicates; controls 1 of 9)
- Y52T/V64P/A102K: no signal (0 of 3 replicates; controls 0 of 9)
- G26A/I34F/V64T: no signal (0 of 3 replicates; controls 0 of 9)
- S63M/V64M/K65Q: no signal (0 of 3 replicates; controls 0 of 9)

Nonspecific signal, from three strains lacking the peptide, appeared in 15% of pairings of library AAYL49, centred on 4.06 (5% of these signals below 2.83); values are not corrected for it. The control count says in how many pairings with the empty strains this scFv gave a signal.